Among the data in ChEMBL document CHEMBL1129336, “Ryanodine action at calcium release channels. 2. relation to substituents of the cyclohexane ring” (J Med Chem, 1996) are Relative activity values, retold here.

By UniProt entry, the sequences of proteins in these tests, tags left out.
UniProt A2AGL3, whole entry: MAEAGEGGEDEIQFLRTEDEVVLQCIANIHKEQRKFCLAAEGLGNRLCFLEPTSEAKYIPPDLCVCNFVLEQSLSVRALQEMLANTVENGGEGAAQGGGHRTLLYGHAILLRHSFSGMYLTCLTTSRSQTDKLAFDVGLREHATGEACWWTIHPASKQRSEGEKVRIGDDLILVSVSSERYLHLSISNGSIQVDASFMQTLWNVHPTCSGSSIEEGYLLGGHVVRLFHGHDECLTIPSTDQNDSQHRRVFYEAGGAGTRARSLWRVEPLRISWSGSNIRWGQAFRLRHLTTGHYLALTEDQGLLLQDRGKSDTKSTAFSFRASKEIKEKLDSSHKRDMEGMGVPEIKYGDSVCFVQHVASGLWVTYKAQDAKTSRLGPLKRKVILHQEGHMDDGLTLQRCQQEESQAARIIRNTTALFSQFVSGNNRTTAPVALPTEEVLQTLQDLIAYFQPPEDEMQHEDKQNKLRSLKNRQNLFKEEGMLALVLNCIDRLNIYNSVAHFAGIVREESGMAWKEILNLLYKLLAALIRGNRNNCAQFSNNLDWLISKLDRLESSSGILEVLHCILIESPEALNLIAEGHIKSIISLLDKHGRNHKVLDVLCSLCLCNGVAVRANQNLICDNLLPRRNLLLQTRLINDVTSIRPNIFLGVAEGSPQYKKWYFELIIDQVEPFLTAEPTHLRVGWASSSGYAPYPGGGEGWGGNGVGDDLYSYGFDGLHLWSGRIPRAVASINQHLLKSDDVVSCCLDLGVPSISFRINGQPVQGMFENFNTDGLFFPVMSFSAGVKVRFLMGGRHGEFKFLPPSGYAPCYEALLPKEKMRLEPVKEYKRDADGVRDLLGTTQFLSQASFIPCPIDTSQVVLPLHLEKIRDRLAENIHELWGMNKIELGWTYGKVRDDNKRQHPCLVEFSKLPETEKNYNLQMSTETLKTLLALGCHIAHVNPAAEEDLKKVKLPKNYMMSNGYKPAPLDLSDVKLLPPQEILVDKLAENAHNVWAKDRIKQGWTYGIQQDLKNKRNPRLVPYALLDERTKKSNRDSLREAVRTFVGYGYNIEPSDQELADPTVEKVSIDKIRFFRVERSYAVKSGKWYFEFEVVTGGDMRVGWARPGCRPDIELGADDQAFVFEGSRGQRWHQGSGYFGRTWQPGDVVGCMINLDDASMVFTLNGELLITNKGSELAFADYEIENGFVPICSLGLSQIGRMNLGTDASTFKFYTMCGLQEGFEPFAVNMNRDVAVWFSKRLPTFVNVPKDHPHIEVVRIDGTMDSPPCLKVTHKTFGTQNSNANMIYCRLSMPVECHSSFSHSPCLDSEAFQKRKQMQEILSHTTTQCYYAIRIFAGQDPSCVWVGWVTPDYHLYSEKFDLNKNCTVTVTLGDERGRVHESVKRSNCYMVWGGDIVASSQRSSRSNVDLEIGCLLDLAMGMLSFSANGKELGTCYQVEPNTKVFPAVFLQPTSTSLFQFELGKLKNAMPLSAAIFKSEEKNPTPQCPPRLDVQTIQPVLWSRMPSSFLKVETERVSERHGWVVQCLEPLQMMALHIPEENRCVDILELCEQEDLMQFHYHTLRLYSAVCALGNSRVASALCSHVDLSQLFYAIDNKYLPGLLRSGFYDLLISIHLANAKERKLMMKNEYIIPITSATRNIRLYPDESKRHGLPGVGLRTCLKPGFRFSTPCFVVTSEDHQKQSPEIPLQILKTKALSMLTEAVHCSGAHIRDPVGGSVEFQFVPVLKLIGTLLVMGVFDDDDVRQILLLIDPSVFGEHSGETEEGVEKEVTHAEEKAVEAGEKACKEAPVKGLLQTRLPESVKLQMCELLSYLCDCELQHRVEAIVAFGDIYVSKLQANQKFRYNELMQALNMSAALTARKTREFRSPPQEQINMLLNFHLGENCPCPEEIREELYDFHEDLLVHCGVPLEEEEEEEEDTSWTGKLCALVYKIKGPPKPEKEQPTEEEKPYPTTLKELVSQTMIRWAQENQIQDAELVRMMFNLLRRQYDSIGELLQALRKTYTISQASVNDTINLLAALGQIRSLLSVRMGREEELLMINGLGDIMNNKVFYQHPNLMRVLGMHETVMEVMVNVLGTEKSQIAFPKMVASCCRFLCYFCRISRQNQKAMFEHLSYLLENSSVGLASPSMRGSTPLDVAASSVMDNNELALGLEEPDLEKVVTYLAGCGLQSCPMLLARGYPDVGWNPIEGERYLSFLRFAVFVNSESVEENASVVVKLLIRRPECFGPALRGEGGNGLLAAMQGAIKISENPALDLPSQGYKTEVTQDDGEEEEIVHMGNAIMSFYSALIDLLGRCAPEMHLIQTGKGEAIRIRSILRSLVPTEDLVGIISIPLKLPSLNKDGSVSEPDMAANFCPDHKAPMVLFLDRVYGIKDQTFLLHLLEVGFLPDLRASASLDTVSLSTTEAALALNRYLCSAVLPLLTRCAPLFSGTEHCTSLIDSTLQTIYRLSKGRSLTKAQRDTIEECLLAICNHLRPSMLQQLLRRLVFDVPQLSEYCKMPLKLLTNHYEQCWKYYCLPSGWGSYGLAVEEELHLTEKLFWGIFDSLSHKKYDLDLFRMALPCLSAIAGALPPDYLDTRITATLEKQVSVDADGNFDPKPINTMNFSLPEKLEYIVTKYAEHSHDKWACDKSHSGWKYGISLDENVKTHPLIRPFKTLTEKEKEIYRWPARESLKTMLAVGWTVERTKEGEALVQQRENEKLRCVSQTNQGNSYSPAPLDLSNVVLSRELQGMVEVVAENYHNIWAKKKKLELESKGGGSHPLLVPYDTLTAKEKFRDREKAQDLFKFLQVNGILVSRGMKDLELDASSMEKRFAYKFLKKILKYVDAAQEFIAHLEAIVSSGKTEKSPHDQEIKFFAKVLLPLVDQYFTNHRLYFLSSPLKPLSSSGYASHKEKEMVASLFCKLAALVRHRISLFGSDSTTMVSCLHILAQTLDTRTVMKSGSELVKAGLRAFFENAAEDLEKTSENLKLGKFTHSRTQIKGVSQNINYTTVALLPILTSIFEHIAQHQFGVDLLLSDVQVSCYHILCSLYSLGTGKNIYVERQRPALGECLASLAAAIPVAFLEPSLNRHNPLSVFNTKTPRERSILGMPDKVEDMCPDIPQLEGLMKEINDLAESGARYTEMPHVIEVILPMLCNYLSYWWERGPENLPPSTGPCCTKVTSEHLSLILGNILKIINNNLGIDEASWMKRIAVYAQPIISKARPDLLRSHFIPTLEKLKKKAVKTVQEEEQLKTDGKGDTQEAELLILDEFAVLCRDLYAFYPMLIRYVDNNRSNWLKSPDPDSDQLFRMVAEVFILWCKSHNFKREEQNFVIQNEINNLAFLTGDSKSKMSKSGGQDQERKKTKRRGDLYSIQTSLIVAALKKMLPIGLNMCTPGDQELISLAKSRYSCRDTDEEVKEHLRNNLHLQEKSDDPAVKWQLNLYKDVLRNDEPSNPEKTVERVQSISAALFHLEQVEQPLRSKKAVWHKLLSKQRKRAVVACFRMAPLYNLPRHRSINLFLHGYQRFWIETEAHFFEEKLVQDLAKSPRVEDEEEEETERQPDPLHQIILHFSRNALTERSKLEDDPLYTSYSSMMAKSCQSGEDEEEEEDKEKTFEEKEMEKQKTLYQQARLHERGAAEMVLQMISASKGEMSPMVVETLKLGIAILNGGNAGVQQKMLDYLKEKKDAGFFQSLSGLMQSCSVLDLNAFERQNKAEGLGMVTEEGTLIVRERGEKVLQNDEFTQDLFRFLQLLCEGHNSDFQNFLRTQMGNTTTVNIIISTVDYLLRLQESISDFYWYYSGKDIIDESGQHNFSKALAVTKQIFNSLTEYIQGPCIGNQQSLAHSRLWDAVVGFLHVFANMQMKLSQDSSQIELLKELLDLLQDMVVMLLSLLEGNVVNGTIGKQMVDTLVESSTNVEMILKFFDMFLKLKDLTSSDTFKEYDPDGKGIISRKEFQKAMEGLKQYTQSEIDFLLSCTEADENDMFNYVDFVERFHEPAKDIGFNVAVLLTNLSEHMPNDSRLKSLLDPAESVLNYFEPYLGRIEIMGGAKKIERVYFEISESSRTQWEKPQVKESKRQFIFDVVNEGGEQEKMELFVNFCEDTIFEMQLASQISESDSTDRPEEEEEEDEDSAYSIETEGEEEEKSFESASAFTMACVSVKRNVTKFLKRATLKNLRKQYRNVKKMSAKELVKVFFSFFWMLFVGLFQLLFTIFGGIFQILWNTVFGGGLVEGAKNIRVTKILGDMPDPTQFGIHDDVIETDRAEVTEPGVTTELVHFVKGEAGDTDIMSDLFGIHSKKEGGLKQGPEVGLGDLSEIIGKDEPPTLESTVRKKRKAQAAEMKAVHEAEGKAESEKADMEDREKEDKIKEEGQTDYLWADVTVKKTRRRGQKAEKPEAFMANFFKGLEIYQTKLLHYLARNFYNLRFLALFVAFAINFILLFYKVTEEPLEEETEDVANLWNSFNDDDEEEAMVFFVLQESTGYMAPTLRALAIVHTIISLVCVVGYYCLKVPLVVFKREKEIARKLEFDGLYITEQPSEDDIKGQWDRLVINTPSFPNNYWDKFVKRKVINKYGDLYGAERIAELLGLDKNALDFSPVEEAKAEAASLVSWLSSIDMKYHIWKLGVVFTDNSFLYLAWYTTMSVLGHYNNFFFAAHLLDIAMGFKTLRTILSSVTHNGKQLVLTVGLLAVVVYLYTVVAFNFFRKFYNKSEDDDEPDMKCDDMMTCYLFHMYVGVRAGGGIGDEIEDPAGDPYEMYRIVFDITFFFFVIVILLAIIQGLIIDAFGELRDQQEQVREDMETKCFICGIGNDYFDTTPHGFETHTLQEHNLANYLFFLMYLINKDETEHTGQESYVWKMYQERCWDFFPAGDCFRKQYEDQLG

In the experiment the target is Ryanodine receptor 3 (Mus musculus) (UniProt A2AGL3). The experiment in a line: Displacement of [3H]ryanodine from ryanodine receptor(ryr) of Mouse brain.

Consider `CC1CCC2(O)C3(C)CC4(O)OC2(C1O)C1(O)C3(O)C(OC(=O)c2ccc[nH]2)C(O)(C(C)C)C41C` (stereo unspecified), for which the Relative activity was found to be 69.
